Measurements taken from ChEMBL document CHEMBL3576868 (J Med Chem, 2015).

Amino acid sequences for entries named in this document (tags omitted). Residues count along the entry.
UniProt P06865, 23-529 G269S limits assumed: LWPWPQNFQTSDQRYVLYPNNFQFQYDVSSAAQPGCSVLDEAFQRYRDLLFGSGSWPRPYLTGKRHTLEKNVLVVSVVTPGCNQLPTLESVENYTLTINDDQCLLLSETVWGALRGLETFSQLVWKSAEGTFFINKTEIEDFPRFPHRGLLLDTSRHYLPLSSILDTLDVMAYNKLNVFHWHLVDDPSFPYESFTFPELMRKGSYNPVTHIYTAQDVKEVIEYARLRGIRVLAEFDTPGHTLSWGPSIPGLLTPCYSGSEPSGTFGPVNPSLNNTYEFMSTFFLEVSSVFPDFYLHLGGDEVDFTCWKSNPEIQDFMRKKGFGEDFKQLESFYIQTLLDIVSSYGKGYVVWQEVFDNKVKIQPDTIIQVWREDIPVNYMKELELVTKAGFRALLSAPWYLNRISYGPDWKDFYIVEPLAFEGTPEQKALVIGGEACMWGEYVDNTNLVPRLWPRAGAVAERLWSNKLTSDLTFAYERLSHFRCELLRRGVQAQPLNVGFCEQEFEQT

Biological target: Beta-hexosaminidase subunit alpha (Homo sapiens, UniProt P06865, G269S)
Assay: Inhibition of HexA alpha G269S mutant in ATSD patient fibroblasts using MUGS substrate incubated for 1 to 2 hrs at pH 4.5 by spectrofluorometry

IC50: 8.5 µM
Compound: CCc1nc(N)nc(N)c1-c1ccc(Cl)cc1 [PYRIMETHAMINE]
